One assay deals with P2X7 (Homo sapiens (Human), UniProt Q99572). Briefly: Ca2+ flux (FLIPR) in 1321N1 cells expressing recombinant human P2X7 channel. The class given is cell-based. The conditions noted are these: 250 μM BzATP. The protocol: (§1) (A) Ca^2+ Flux: 1321N1 cells expressing the recombinant human, rat or mouse P2X7 channel was cultured in HyQ DME/(HyClone/Dulbecco's Modified Eagle Medium) high glucose supplemented with 10% Fetal Bovine Serum (FBS) and appropriate selection marker. Cells were seeded at a density of 25000 cells/well (96-well clear bottom black walled plates) in 100 μl volume/well. On the day of the experiment, cell plates were washed with assay buffer, containing (in mM): 130 NaCl, 2 KCl, 1 CaCl2, 1 MgCl2, 10 HEPES, 5 glucose; pH 7.40 and 300 mOs. After the wash, cells were loaded with the Calcium-4 dye (Molecular Device) and incubated in the dark for 60 minutes. Test compounds were prepared at 250× the test concentration in neat DMSO. Intermediate 96-well compound plates were prepared by transferring 1.2 μL of the compound into 300 μL of assay buffer. A further 3× dilution occurred when transferring 50 μL/well of the compound plate to 100 μL/well in the cell plate. Cells were incubated with test compounds and dye for 30 minutes. […] The fluorescence change was measured 180 seconds after adding the agonist.
For orientation: A change in cytosolic calcium serves as a functional read-out for many receptors and channels.

By UniProt entry, the sequences of proteins in these tests, tags left out. Where a name states a change or a piece, a line headed by the entry shows the natural chain unless it says otherwise.
UniProt Q99572: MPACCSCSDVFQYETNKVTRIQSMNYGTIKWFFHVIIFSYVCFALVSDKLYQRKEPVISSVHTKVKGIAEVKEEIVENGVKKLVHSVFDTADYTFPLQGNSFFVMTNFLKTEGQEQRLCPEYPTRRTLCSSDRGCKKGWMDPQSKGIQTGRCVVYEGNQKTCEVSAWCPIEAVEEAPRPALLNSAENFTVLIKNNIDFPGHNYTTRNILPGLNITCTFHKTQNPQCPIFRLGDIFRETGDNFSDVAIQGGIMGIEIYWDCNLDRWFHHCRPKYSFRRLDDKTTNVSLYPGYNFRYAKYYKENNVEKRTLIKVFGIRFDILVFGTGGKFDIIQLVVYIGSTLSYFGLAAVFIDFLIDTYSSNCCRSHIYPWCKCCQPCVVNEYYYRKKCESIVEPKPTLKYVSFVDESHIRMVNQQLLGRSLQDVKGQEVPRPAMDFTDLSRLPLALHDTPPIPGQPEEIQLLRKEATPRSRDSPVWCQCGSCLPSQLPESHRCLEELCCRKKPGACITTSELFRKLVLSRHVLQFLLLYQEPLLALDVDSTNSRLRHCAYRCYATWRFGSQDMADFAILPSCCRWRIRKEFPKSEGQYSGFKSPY
UniProt Q64663: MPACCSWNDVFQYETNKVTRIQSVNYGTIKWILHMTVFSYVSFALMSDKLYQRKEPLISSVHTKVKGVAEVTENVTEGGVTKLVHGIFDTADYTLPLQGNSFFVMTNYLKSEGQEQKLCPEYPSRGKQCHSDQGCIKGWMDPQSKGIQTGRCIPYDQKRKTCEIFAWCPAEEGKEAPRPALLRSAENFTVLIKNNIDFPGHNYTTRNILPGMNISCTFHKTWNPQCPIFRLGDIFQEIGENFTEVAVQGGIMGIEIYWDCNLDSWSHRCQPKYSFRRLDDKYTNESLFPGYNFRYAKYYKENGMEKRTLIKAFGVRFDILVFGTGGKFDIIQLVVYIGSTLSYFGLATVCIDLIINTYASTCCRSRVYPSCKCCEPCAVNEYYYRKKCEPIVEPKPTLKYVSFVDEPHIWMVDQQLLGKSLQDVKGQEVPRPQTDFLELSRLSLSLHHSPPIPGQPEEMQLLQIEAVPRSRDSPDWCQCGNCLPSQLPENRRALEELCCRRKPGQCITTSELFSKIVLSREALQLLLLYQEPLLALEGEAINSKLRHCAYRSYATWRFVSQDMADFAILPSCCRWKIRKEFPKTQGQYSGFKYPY

The next assay concerns the target rat P2X7 (Rattus norvegicus (Rat), UniProt Q64663). Nature of the assay: Ca2+ flux (FLIPR) in 1321N1 cells expressing recombinant rat P2X7 channel. It counts as cell-based. As to conditions: 250 μM BzATP. The protocol:
as §1

Usually IC50 stands for the concentration that inhibits the measured activity by half. As to `O=C1c2nnc(-c3ncccn3)n2C[C@H](C2CC2)N1Cc1cccc(C(F)(F)F)c1Cl` (single isomer, unassigned) [Example 66, (6S*)-7-[2-Chloro-3-(trifluoromethyl)benzyl]-6-cyclopropyl-3-pyrimidin-2-yl-6,7-dihydro[1,2,4]triazolo[4,3-a]pyrazin-8(5H)-one], at P2X7, the IC50 is 1 nM. On to `CC[C@H]1Cn2c(nnc2-c2ncccn2)C(=O)N1Cc1cccc(C(F)(F)F)c1Cl` [Example 72, (6S)-7-[2-Chloro-3-(trifluoromethyl)benzyl]-6-ethyl-3-pyrimidin-2-yl-6,7-dihydro[1,2,4]triazolo[4,3-a]pyrazin-8(5H)-one], for which the figures for the IC50 on rat P2X7 and at P2X7 were 5.6 nM and 0.9 nM, respectively.

As to `C[C@H]1Cn2c(nnc2-c2ccc(Cl)cn2)C(=O)N1Cc1cccc(C(F)(F)F)c1Cl` [Example 56, (6S)-3-(5-Chloropyridin-2-yl)-7-[2-chloro-3-(trifluoromethyl)benzyl]-6-methyl-6,7-dihydro[1,2,4]triazolo[4,3-a]pyrazin-8(5H)-one], the IC50 on rat P2X7 turned out to be 824 nM; on P2X7 it was 65.9 nM. Regarding `C[C@H]1Cn2c(nnc2-c2cnccn2)C(=O)N1Cc1ccc(F)cc1Cl` [Example 78, (6S)-7-(2-Chloro-4-fluorobenzyl)-6-methyl-3-pyrazin-2-yl-6,7-dihydro[1,2,4]triazolo[4,3-a]pyrazin-8(5H)-one], the IC50 at rat P2X7 was 3270 nM; on P2X7 it was 42.5 nM.

For the compound `C[C@H]1Cn2c(nnc2-c2cccc(C(F)(F)F)n2)C(=O)N1Cc1cccc(C(F)(F)F)c1Cl` [Example 55, (6S)-7-[2-Chloro-3-(trifluoromethyl)benzyl]-6-methyl-3-[6-(trifluoromethyl)pyridin-2-yl]-6,7-dihydro[1,2,4]triazolo[4,3-a]pyrazin-8(5H)-one], the IC50 at rat P2X7 turned out to be 743 nM; at P2X7, 315 nM. As for `C[C@H]1Cn2c(nnc2-c2cncs2)C(=O)N1Cc1cccc(C(F)(F)F)c1Cl` [Example 37, (6S)-7-[2-Chloro-3-(trifluoromethyl)benzyl]-6-methyl-3-(1,3-thiazol-5-yl)-6,7-dihydro[1,2,4]triazolo[4,3-a]pyrazin-8(5H)-one], the IC50 at rat P2X7 came to 1210 nM. For `O=C1c2nnc(-c3ccc(F)cn3)n2CC(C2CC2)N1Cc1cccc(C(F)(F)F)c1Cl` (racemic) [Example 69, (±)-7-[2-Chloro-3-(trifluoromethyl)benzyl]-6-cyclopropyl-3-(5-fluoropyridin-2-yl)-6,7-dihydro[1,2,4]triazolo[4,3-a]pyrazin-8(5H)-one], the IC50 on P2X7 turned out to be 20 nM. For `CC[C@H]1Cn2c(nnc2-c2ncc(F)cn2)C(=O)N1Cc1cccc(C(F)(F)F)c1Cl` [Example 75, (6S)-7-[2-Chloro-3-(trifluoromethyl)benzyl]-6-ethyl-3-(5-fluoropyrimidin-2-yl)-6,7-dihydro[1,2,4]triazolo[4,3-a]pyrazin-8(5H)-one], the half-inhibitory concentration (IC50) was 126 nM at rat P2X7 and under 1 nM on P2X7.

For `CC[C@H]1Cn2c(nnc2-c2cccnc2)C(=O)N1Cc1cccc(C(F)(F)F)c1Cl` [Example 73, (6S)-7-[2-Chloro-3-(trifluoromethyl)benzyl]-6-ethyl-3-pyridin-3-yl-6,7-dihydro[1,2,4]triazolo[4,3-a]pyrazin-8(5H)-one], the IC50 on P2X7 came out at 1.4 nM. As for `Cc1cncc(-c2nnc3n2C[C@H](C)N(Cc2cccc(C(F)(F)F)c2Cl)C3=O)c1` [Example 57, (6S)-7-[2-Chloro-3-(trifluoromethyl)benzyl]-6-methyl-3-(5-methylpyridin-3-yl)-6,7-dihydro[1,2,4]triazolo[4,3-a]pyrazin-8(5H)-one], the IC50 on rat P2X7 is over 10000 nM.

On to `O=C1c2nnc(-c3cc[nH]n3)n2CC(C2CC2)N1Cc1cccc(C(F)(F)F)c1Cl` (racemic) [Example 68, (±)-7-[2-Chloro-3-(trifluoromethyl)benzyl]-6-cyclopropyl-3-(1H-pyrazol-3-yl)-6,7-dihydro[1,2,4]triazolo[4,3-a]pyrazin-8(5H)-one], for which the IC50 at P2X7 came out at 1.1 nM. For `C[C@H]1Cn2c(nnc2-c2ccncc2)C(=O)N1Cc1cccc(C(F)(F)F)c1Cl` [Example 47, (6S)-7-[2-Chloro-3-(trifluoromethyl)benzyl]-6-methyl-3-pyridin-4-yl-6,7-dihydro[1,2,4]triazolo[4,3-a]pyrazin-8(5H)-one], the IC50 on rat P2X7 is 14400 nM.

For the compound `Cc1cnc(-c2nnc3n2C[C@H](C)N(Cc2cccc(C(F)(F)F)c2Cl)C3=O)cn1` [Example 19, (6S)-7-[2-Chloro-3-(trifluoromethyl)benzyl]-6-methyl-3-(5-methylpyrazin-2-yl)-6,7-dihydro[1,2,4]triazolo[4,3-a]pyrazin-8(5H)-one], the IC50 at rat P2X7 was found to be 3160 nM; on P2X7, 20 nM. For `C[C@H]1Cn2c(nnc2-c2cnco2)C(=O)N1Cc1cccc(C(F)(F)F)c1Cl` [Example 22, (6S)-7-[2-Chloro-3-(trifluoromethyl)benzyl]-6-methyl-3-(1,3-oxazol-5-yl)-6,7-dihydro[1,2,4]triazolo[4,3-a]pyrazin-8(5H)-one], in that order: 3160 nM and 39.8 nM. As for `O=C1c2nnc(-c3ncccn3)n2C[C@@H](C2CC2)N1Cc1cccc(C(F)(F)F)c1Cl` (single isomer, unassigned) [Example 65, (6R*)-7-[2-Chloro-3-(trifluoromethyl)benzyl]-6-cyclopropyl-3-pyrimidin-2-yl-6,7-dihydro[1,2,4]triazolo[4,3-a]pyrazin-8(5H)-one], on P2X7, the IC50 was 18.1 nM. For the compound `O=C1c2nnc(-c3cnccn3)n2C[C@H](C2CC2)N1Cc1cccc(C(F)(F)F)c1Cl` (single isomer, unassigned) [Example 63], the half-maximal inhibitory concentration (IC50) at rat P2X7 is 9.6 nM. On to `O=C1c2nnc(-c3cnccn3)n2CC(C2CC2)N1Cc1cccc(C(F)(F)F)c1Cl` (racemic) [Example 61, (±)-7-[2-Chloro-3-(trifluoromethyl)benzyl]-6-cyclopropyl-3-pyrazin-2-yl-6,7-dihydro[1,2,4]triazolo[4,3-a]pyrazin-8(5H)-one], for which the IC50 on P2X7 came out at 4 nM. For the compound `C[C@H](c1ccccc1)N1C(=O)c2nnc(-c3cnccn3)n2C[C@@H]1C` (relative stereo) [Example 94, (6S)-6-Methyl-7-[(1R*)-1-phenylethyl]-3-pyrazin-2-yl-6,7-dihydro[1,2,4]triazolo[4,3-a]pyrazin-8(5H)-one], the IC50 was over 10000 nM at rat P2X7 and 86.5 nM at P2X7. Consider `C[C@H]1Cn2c(nnc2-c2ccon2)C(=O)N1Cc1cccc(C(F)(F)F)c1Cl` [Example 41, (6S)-7-[2-Chloro-3-(trifluoromethyl)benzyl]-3-isoxazol-3-yl-6-methyl-6,7-dihydro[1,2,4]triazolo[4,3-a]pyrazin-8(5H)-one], for which the IC50 amounted to 2780 nM at rat P2X7 and 26.4 nM at P2X7.

With `C[C@H]1Cn2c(nnc2-c2nccc(C(F)(F)F)n2)C(=O)N1Cc1cccc(C(F)(F)F)c1Cl` [Example 54, (6S)-7-[2-chloro-3-(trifluoromethyl)benzyl]-6-methyl-3-[4-(trifluoromethyl)pyrimidin-2-yl]-6,7-dihydro[1,2,4]triazolo[4,3-a]pyrazin-8(5H)-one], the IC50 on P2X7 worked out at 1.7 nM. With `Cc1ncsc1-c1nnc2n1C[C@H](C)N(Cc1cccc(C(F)(F)F)c1Cl)C2=O` [Example 40, (6S)-7-[2-Chloro-3-(trifluoromethyl)benzyl]-6-methyl-3-(4-methyl-1,3-thiazol-5-yl)-6,7-dihydro[1,2,4]triazolo[4,3-a]pyrazin-8(5H)-one], on P2X7, the IC50 was 10.4 nM. Same read-out and setting: with `C[C@H]1Cn2c(nnc2-c2cocn2)C(=O)N1Cc1cccc(C(F)(F)F)c1Cl` [Example 21, (6S)-7-[2-Chloro-3-(trifluoromethyl)benzyl]-6-methyl-3-(1,3-oxazol-4-yl)-6,7-dihydro[1,2,4]triazolo[4,3-a]pyrazin-8(5H)-one] the figure was under 1 nM.

`C[C@H]1Cn2c(nnc2-c2ccncn2)C(=O)N1Cc1cccc(C(F)(F)F)c1Cl` [Example 33, (6S)-7-[2-Chloro-3-(trifluoromethyl)benzyl]-6-methyl-3-pyrimidin-4-yl-6,7-dihydro[1,2,4]triazolo[4,3-a]pyrazin-8(5H)-one]: the figures for the half-maximal inhibitory concentration (IC50) on rat P2X7 and at P2X7 were 14300 nM and 4.3 nM, respectively. `O=C1c2nnc(-c3ncccn3)n2CC(C2CC2)N1Cc1cccc(C(F)(F)F)c1Cl` (racemic) [Example 64, (±)-7-[2-Chloro-3-(trifluoromethyl)benzyl]-6-cyclopropyl-3-pyrimidin-2-yl-6,7-dihydro[1,2,4]triazolo[4,3-a]pyrazin-8(5H)-one]: at P2X7, the IC50 was found to be 1.4 nM. Still for that read-out and setting: under `O=C1c2nnc(-c3cccnc3)n2CC(C2CC2)N1Cc1cccc(C(F)(F)F)c1Cl` (racemic) [Example 67, (±)-7-[2-Chloro-3-(trifluoromethyl)benzyl]-6-cyclopropyl-3-pyridin-3-yl-6,7-dihydro[1,2,4]triazolo[4,3-a]pyrazin-8(5H)-one] stands 4.3 nM.

Consider `C[C@H]1Cn2c(nnc2C2CCN(C(=O)OC(C)(C)C)C2)C(=O)N1Cc1cccc(C(F)(F)F)c1Cl` (stereo partly drawn) [Example 58, (6S)-tert-Butyl3-{7-[2-chloro-3-(trifluoromethyl)benzyl]-6-methyl-8-oxo-5,6,7,8-tetrahydro[1,2,4]triazolo[4,3-a]pyrazin-3-yl}pyrrolidine-1-carboxylate], for which the IC50 on P2X7 worked out at 12200 nM. For the compound `Cc1nc(-c2nnc3n2C[C@H](C)N(Cc2cccc(C(F)(F)F)c2Cl)C3=O)cs1` [Example 36, (6S)-7-[2-Chloro-3-(trifluoromethyl)benzyl]-6-methyl-3-(2-methyl-1,3-thiazol-4-yl)-6,7-dihydro[1,2,4]triazolo[4,3-a]pyrazin-8(5H)-one], the IC50 on rat P2X7 was 1060 nM.

(Values after patent US9040534B2 (Janssen Pharmaceutica NV, priority 2013, dated 2015).)
